From patent US7196110B2, “N-substituted tricyclic 3-aminopyrazoles as inhibitors for the treatment of cell proliferative disorders” (Janssen Phamaceutica N.V., priority 2002, dated 2007)

Sequences of proteins named here, by UniProt entry; tags and fusion partners are left off. Residues count along the entry.
UniProt P09619, 545-1106 limits assumed: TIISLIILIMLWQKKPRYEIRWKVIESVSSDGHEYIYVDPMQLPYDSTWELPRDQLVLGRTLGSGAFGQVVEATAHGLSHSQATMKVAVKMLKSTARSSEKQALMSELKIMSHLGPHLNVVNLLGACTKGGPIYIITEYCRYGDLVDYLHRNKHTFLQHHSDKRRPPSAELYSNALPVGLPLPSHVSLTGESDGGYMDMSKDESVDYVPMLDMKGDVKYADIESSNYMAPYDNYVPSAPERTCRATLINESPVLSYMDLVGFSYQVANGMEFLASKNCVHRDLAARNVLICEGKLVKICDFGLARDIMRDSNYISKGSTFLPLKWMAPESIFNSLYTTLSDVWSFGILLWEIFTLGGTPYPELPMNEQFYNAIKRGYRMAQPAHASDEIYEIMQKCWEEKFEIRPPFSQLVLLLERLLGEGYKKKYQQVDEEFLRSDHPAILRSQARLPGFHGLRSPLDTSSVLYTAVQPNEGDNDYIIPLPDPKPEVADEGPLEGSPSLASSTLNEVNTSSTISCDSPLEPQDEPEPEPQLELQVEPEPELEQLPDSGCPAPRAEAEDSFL

Molecular target: PDGF-receptor beta enzyme comprising the tyrosine kinase domain (Homo sapiens, UniProt P09619)
Test: Inhibition of PDGF-receptor kinase activity (cell-free, PLC1 peptide, 33P Flashplate)
Type: biochemical
Conditions: PDGF-R kinase activity

## COc1cc2c(cc1OC)-c1n[nH]c(Nc3ccc(C)c(Nc4nccc(-c5cccnc5)n4)c3)c1C2
  IC50: 1.1 µM
Compound at 10 uM
  Percent Inhibition @ 10 uM: 72%
